According to patent US12109231B2, “Treatment of neurodegenerative disease with sodium chlorite” (Neuvivo, Inc., priority 2015, dated 2024):

Tested on: ALS patients
Details: phase 1 or 2 trials

Question: For sodium chlorite, which toxicities is on record?
Answer: No toxicities were noted
